Experimental findings from ChEMBL document CHEMBL1914414, “Selective cholinesterase inhibition by lanostane triterpenes from fruiting bodies of Ganoderma lucidum” (Bioorg Med Chem Lett, 2011) are described below.

Protein sequences, listed by entry. Tags and fused reporters are not part of them. Lines headed by an entry give the natural chain unless they say otherwise; changes in a name come on top.
UniProt P22303: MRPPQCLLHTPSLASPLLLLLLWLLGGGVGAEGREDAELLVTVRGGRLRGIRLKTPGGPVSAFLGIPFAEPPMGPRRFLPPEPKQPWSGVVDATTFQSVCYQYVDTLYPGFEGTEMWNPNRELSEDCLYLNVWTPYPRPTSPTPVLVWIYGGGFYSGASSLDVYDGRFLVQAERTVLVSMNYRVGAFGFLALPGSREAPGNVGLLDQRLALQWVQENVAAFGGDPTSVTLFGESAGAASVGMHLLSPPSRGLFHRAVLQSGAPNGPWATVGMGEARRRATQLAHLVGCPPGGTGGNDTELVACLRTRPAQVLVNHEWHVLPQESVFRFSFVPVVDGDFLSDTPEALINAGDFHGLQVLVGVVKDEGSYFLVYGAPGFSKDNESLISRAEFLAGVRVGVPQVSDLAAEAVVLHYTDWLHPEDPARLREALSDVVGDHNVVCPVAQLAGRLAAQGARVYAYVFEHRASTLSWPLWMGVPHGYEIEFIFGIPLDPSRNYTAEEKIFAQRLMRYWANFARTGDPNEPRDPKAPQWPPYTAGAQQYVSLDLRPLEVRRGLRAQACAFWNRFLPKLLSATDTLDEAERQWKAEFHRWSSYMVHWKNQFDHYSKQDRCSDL

Molecules are shown by their SMILES. pIC50: −log10 of the molar value.

This experiment has as its target Acetylcholinesterase (Homo sapiens, UniProt P22303). Briefly: Inhibition of AChE assessed as hydrolysis of acetylcholine preincubated for 15 mins measured after 15 mins by colorimetric Ellman assay. For orientation: Ellman's reagent forms a yellow product with free thiols.

As usually defined, the pIC50 is the negative decadic logarithm of the IC50, by convention in mol/L. Consider `COc1ccc2cc3[n+](cc2c1OC)CCc1cc2c(cc1-3)OCO2` [BERBERINE CHLORIDE], for which the pIC50 was 7.40.
